Earlier results, collected in patent US5385911A, “Anti-herpes castanospermine esters” (priority 1990, dated 1995).

Key:
[1] = test system: viral protein glycosylation; conditions: cited from earlier work
[2] = test system: influenza infected cells; conditions: cited from earlier work

SMILES: OC[C@H]1OC(O)[C@@H](F)[C@@H](O)[C@@H]1O (stereo partly drawn) [2-deoxy-2-fluoro-D-mannose]
- inhibition of viral protein glycosylation [1]: preventing the glycosylation of viral membrane protein
- antiviral activity against influenza infected cells [2]: exhibit antiviral activity against influenza infected cells
